Literature values in patent US20130142868A1 (priority 2010, published 2013).
Only a part of the results on these compounds is given; other tests are left out.

Settings: cited from earlier work

In the case of `CCC(=O)N(c1ccccc1)C1CCN(CCc2ccccc2)CC1`, the log P is given as 3.9.
